US9120761B2, “Selective FAK inhibitors” (priority 2011, dated 2015)

Protein sequences, listed by entry. Tags and fused reporters are not part of them. Residues count along the entry.
UniProt Q05397, 411-686: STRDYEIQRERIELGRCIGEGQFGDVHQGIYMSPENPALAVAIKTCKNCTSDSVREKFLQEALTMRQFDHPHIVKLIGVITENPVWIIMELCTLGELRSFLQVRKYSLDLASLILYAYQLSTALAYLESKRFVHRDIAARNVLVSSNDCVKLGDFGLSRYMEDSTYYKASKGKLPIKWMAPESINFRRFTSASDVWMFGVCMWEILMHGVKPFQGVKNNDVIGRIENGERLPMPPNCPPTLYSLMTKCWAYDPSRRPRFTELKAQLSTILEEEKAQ
UniProt Q05397, whole entry: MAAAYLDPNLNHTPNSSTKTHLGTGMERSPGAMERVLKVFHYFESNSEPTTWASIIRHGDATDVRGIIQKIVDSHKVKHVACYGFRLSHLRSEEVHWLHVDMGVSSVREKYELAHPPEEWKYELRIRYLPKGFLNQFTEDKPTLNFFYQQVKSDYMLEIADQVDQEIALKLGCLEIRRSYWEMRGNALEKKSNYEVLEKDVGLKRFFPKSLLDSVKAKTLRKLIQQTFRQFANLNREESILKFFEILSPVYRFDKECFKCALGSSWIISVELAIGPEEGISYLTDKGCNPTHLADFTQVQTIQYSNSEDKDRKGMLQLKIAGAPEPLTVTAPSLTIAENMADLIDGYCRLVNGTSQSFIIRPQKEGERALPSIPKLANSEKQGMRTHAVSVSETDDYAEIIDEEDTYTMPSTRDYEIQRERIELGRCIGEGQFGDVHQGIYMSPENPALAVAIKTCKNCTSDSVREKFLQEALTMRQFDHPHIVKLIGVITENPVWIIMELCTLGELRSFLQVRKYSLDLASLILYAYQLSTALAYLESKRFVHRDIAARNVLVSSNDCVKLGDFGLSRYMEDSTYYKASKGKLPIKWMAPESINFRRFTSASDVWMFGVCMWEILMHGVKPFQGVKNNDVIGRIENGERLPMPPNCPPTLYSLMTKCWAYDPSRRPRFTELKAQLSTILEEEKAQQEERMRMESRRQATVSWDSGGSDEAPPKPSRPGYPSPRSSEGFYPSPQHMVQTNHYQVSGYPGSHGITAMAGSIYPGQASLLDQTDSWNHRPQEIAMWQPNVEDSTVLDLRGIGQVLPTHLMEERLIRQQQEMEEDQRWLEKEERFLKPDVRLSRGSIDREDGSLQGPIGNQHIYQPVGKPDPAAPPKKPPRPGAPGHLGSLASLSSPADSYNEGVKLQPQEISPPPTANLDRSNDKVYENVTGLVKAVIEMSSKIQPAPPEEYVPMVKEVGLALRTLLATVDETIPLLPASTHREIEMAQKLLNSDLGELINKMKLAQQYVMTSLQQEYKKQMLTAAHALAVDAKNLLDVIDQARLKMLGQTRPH
UniProt P35916, 25-1363 limits assumed: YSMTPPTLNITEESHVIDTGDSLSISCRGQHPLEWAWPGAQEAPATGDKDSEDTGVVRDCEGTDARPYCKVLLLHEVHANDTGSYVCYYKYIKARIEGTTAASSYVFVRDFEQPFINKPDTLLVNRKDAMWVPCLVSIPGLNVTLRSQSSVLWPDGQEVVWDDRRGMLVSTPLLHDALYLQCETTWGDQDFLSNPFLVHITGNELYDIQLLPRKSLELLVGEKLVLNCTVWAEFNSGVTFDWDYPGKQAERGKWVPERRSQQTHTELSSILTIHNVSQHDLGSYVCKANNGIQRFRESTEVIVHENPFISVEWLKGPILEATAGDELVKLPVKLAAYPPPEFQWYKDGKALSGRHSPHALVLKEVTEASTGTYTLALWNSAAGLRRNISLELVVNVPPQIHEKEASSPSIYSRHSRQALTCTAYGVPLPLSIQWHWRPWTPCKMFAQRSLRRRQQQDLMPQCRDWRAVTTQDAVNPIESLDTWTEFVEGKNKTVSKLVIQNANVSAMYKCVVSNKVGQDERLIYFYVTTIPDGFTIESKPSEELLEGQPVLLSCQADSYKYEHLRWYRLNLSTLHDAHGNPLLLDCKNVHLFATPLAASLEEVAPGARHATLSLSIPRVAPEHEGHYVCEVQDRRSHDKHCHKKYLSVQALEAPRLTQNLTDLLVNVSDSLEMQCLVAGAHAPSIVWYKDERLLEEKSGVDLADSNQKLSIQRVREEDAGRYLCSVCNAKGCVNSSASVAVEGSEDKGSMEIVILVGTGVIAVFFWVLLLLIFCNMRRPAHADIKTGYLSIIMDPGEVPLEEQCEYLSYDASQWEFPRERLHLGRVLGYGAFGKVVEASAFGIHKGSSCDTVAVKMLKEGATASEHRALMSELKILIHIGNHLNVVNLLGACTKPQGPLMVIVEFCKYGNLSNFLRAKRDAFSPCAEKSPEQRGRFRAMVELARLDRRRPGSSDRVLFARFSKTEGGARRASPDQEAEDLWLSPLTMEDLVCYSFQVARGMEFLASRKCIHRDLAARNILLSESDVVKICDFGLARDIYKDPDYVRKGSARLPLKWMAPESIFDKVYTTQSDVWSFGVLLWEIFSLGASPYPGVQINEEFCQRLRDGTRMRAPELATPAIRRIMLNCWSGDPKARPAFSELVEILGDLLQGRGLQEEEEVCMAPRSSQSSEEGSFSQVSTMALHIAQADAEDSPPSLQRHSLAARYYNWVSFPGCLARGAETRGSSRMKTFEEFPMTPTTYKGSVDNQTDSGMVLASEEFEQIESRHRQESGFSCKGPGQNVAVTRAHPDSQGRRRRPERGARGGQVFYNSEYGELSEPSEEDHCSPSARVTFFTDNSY

Assays:
[1] = target: FAK enzyme (catalytic domain, amino acids 411-686) (Homo sapiens (Human), UniProt Q05397); experiment: FAK biochemical Alpha Screen assay; settings: 80 μM ATP
[2] = target: N-terminally GST-fused purified FAK enzyme (Homo sapiens (Human), UniProt Q05397); experiment: FAK Biacore SPR assay; type: binding; settings: Biacore S51, 25° C.
[3] = target: VEGFR3 cytoplasmic domain (Homo sapiens, UniProt P35916); experiment: VEGFR3 biochemical assay (Alpha Screen); settings: N-terminal GST-fusion protein (amino acids 798-1298), 500 μM ATP

CCc1cc(C2CCN(C)CC2)ccc1Nc1ncc(C(F)(F)F)c(CCc2ccccc2CC(N)=O)n1 [Compound 9, 2-(2-(2-(2-((2-Ethyl-4-(1-methylpiperidin-4-yl)phenyl)amino)-5-(trifluoromethyl)pyrimidin-4-yl)ethyl)phenyl)acetamide]
IC50 [1]: 3.6 nM | Kd [2]: 1.5 nM | IC50 [3]: 1010 nM
